Test results as given in patent US7737127B2, “2-propynyl adenosine analogs having A2A agonist activity and compositions thereof” (University of Virginia Patent Foundation, priority 2001, dated 2010).

Sequences of proteins named here, by UniProt entry; tags and fusion partners are left off.
UniProt P30542, whole entry: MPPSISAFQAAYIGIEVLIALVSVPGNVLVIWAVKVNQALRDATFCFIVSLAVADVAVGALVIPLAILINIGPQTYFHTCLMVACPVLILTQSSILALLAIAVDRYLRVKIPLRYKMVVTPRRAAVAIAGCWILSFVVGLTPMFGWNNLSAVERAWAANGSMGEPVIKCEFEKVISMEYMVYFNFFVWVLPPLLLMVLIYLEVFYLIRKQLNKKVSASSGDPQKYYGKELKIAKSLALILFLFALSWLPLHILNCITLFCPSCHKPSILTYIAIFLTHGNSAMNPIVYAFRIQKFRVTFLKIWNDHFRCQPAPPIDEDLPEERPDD
UniProt P0DMS8, whole entry: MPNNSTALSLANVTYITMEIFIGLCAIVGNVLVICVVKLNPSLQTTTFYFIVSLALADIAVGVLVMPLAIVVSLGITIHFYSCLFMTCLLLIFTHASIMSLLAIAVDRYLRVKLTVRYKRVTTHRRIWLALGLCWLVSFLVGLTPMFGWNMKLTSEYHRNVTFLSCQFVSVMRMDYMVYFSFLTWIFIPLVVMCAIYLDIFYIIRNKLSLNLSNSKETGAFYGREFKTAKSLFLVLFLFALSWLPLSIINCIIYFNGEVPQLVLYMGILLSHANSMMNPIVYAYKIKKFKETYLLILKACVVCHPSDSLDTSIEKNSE

Assays:
human neutrophils = experiment: Human neutrophil oxidative activity, luminol-enhanced chemiluminescence; format: cell-based
human A1 AR = human A1 AR (Homo sapiens, UniProt P30542); experiment: Radioligand competition binding (125I-ABA) to human A1 AR in CHO K1 cell membranes
A3 AR = A3 AR (Homo sapiens, UniProt P0DMS8); experiment: Radioligand competition binding (125I-ABA) to human A3 AR in HEK 293 cell membranes
[1] = molecular target: recombinant human A2A receptors (Homo sapiens, UniProt P29274); experiment: Radioligand competition binding to recombinant human A2A receptors in Sf9 cell membranes; settings: read-out: A2A ± SEM, Ki from competition binding

Q: What does the source list for CCNC(=O)[C@H]1O[C@@H](n2cnc3c(N)nc(C#CCN4CCC(C(=O)OC)CC4)nc32)[C@H](O)[C@@H]1O?
A: PMN oxid + roli (-log EC50) (human neutrophils; human neutrophil experiment w/Rolipram): 8.5; PMN oxid (-log EC50) (human neutrophils; human neutrophil experiment w/o Rolipram): 7.52; Ki (human A1 AR; read-out: A1 ± SEM, Ki from competition binding, 125I-ABA, CHO K1 cell membranes): 47.3 nM; A1/A2A (human A1 AR; selectivity ratio A1 over A2A): 7.9; Ki (A3 AR; read-out: A3 ± SEM, Ki from competition binding, 125I-ABA, HEK 293 cell membranes): 58.5 nM; A3/A2A (A3 AR; selectivity ratio A3 over A2A): 9.7; Ki [1]: 6.02 nM
